The values below come from PubChem BioAssay AID434978 (Johns Hopkins Ion Channel Center, 2010).

This is a selection; strong and weak results do not stand in their true shares. Active and inactive are the calls of the source.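 The calls were made as follows: active = primary screen active whose calcium signal fell more than 3 SD beyond the full-serotonin control mean in both duplicate plates; inactive = the rest.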

A short description of the assay: calcium flux inhibitors in TRPC4/5HT1a cells, confirmation, counter-screen for TRPC4 inhibitor project, cell-based, second counter screen, HEK293 TRPC4/5HT1a, Fluo-4 (AID 434978). Particulars: Fluo-4 calcium flux, at 10 µM, serotonin added to trigger calcium flux; active compounds read high.
As for `CN(C)CCOC(=O)C(O)(c1ccccc1)C1CCCC1` (configuration not stated), the inhibition is active: 33.2%.

Consider `CCN(CC)CCCOC(=O)C(O)(c1ccccc1)c1ccccc1`, for which the inhibition result is “inactive”.
